Source: patent US8507510B2, “Sulfoximine-substituted pyrimidines as CDK- and/or VEGF inhibitors, their production and use as pharmaceutical agents” (Bayer Intellectual Property GmbH, priority 2003, dated 2013)

Sequences of proteins named here, by UniProt entry; tags and fusion partners are left off.
UniProt P06493, whole entry: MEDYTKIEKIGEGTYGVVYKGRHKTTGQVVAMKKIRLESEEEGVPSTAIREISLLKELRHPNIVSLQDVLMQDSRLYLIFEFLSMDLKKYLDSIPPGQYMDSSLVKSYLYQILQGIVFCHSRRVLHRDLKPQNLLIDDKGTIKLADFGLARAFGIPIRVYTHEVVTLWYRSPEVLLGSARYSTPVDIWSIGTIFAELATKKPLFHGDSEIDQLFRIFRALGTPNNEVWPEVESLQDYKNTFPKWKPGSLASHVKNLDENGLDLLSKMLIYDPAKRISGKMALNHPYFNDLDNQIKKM

Experiments:
CDK1/CycB = CDK1/CycB (Homo sapiens (Human), UniProt P06493); assay: CDK1/CycB kinase assay; type: biochemical; settings: histone IIIS substrate, 0.5 μm ATP
CDK2/CycE = CDK2/CycE (Homo sapiens (Human), UniProt P24941); assay: CDK2/CycE kinase assay; type: biochemical; settings: histone IIIS substrate, 0.5 μm ATP
DU145 = assay: Proliferation assay, DU145; type: cell-based; settings: Homo sapiens, DU-145, 96 h, DU145 cells, 4 days, crystal violet
Description: Cultivated human tumor cells (MCF7, […] human breast cancer cells, related to ATCC HTB22; NCI-H460, human non-small-cell lung cancer cells, ATCC HTB-177, HCT 116, human colon cancer cells, ATCC CCL-247; DU 145, hormone-independent human prostate cancer cells, ATCC HTB-81; MaTu-MDR, hormone-independent, multiple pharmaceutical agent-resistant human breast cancer cells, EPO-GmbH, Berlin) were flattened out at a density of about 5000 cells/measuring point, depending on the growth rate of the respective cells, in a 96-well multititer plate in 200 μl of the corresponding growth medium. […] The cell proliferation was determined by coloring the cells with crystal violet: the cells were fixed by adding 20 μl/measuring point of an 11% glutaric aldehyde solution for 15 minutes at room temperature. […] The extinction was determined by photometry at a wavelength of 595 nm The change of cell growth, in percent, was calculated by normalization of the measured values to the extinction values of the zero-point plate (=0%) and the extinction of the untreated (0 μm) cells (=100%).

IC50 (CDK1/CycB) | IC50 (CDK2/CycE) | IC50 (DU145) | Compound
3 nM |  |  | COc1cc(Nc2ncc(Br)c(N[C@H](C)[C@@H](C)O)n2)ccc1S(C)(=N)=O (single isomer, unassigned) [Example 1.27]
 | 2 nM |  | C[C@@H](O)[C@@H](C)Nc1nc(Nc2ccc(S(C)(=N)=O)cc2)ncc1Br (single isomer, unassigned) [Example 1.44]
 | 24 nM | 70 nM | CCS(=N)(=O)c1ccc(Nc2ncc(Br)c(N[C@H](C)C(C)(C)O)n2)cc1 (single isomer, unassigned) [Example 1.56]
